The text below walks through data of patent publication US20220184072A1 (priority 2019, published 2022).

For orientation: Cmax means the maximum level reached in the sampled fluid or tissue.

The conditions of series [1]: rat, in vivo, sc, 3 mg/kg.
For series [2] the following is noted: 0.3 and 3 mg/kg s.c. four times, 28 days.
A further series can be described thus: in vivo. Particulars: mouse.

In the case of `O=C1CN2c3c(cccc3[C@@H]3CN(CCCOc4ccc(F)cc4)CC[C@@H]32)N1` [Example 1, (6bR,10aS)-8-(3-(4-fluorophenoxy)propyl)-6b,7,8,9,10,10a-hexahydro-1H-pyrido[3′,4′:4,5]pyrrolo[1,2,3-de]quinoxalin-2(3H)-one], the “plasma concentration, 24 hours” value in series [1] came out at 1.9 ng/mL. For the same molecule, the tolerance result in series [2] is on record as “does not produce tolerance”. In addition, the Cmax came out at 1290 ng/g in “in vivo” (po, 10 mg/kg) and 78.5 ng/g in “in vivo” (sc, 0.1 mg/kg).
